Nrf2 ARE act = activates Nrf2 signaling; AREc32 ARE-luciferase reporter (MCF7-derived line), luminescence, 24 h; Potency, µM (highest dose often 46.1 µM), without a hit: top-dose activation, hits mostly activators; 0.31% of 410,000 active; further: potency means the concentration at half of the fitted maximal effect; % of control where 0% means no effect; nearly all actives have a fitted effect of over 65% in size
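Reporter line AREc32 (ARE-Fluc), seeded overnight in OPTI-MEM with 5% FBS; compound pin-transferred, 24 hr at 37 deg C, 5% CO2; luminescent read-out.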
A549 tox = kills or reduces viability of A549 cells in Nrf2 counter-screen. A549 ARE-Fluc cells, CellTiter-Fluor viability, 18-24 h. Potency, µM (top dose mostly 46 µM), for inactives: at the top dose activity change, negative = cytotoxicity, hits mostly inhibitors. 0.16% of 390,000 active; further: potency means the concentration at half of the fitted maximal effect; on the % scale 0 is the no-effect control and ±100 the full control effect
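Cytotoxicity counterscreen: CellTiter-Fluor fluorescence was measured in A549 ARE_Fluc cells after 18-24 h of compound exposure in a concentration series. The subsequent BugLite luminescent read reports ARE-luciferase activity.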
Nrf2 block = blocks Nrf2 signaling. A549 ARE-Fluc reporter, luciferase luminescence, 18-24 h. AID 504444. 2.1% of 360,000 active. Potency, µM (titrated, usually from 46 µM), inactives show at the top dose activity change, negative = inhibition, actives largely listed as inhibitors; further: potency means the concentration at half of the fitted maximal effect; on the % scale 0 is the no-effect control and ±100 the full control effect; nearly all actives have a fitted effect of over 60% in size
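Nrf2 function is reported as luminescence of an ARE-controlled luciferase in A549 cells. Compounds were tested at several concentrations, and a CellTiter-Fluor read on the same wells flagged cytotoxicity.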
miR-21 reporter = raises the signal of a miR-21 reporter; AID 2288; 340,000 tested, under 10 active; Potency, µM (doses to about 38.3 µM), inactives show at the top dose reporter change, positive = more light; HeLa miR-21 FLuc reporter, luciferase, 48 h; active = well fitted rising curve with a large enough effect; inconclusive = small, poorly fitted or top-dose-only effect; inactive = no such curve, though single readings can be large or run the other way;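 note: % of control where 0% means no effect; miR-21 action dims this reporter so a rising signal means less miR-21 action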
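HeLa cells stably expressing CMV-driven firefly luciferase with a downstream miR-21 binding sequence, endogenously expressing miR-21, were treated with titrations (up to about 40uM final) for 48 hours at 37 degree Celsius. Luciferase luminescence was read after lysis.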
TCR activator = activators of T cell receptors | primary human leukocytes, anti-CD3, IL-2 HTRF, 48 h | Potency, µM (titrated, usually from 9.22 µM), for the others: at the top dose activation of IL-2 secretion, actives largely listed as activators | 330,000 tested, under 10 active; further: % of control where 0% means no effect
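IL-2 produced over 48 hr by a-CD3 bead-stimulated primary human leukocytes exposed to compounds was detected with a homogeneous time-resolved FRET immunoassay, 665nm acceptor signal after 320nm excitation.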
ClpP mod = qHTS Assay for Activators of ClpP. 1.9% of 340,000 active. purified B. subtilis ClpP, FRET peptide cleavage, 20 min. Potency, µM (series often up to 57.5 µM), without a hit: at the highest dose activity change, negative = active; active means well fitted falling curve with a large enough effect; inconclusive means small, poorly fitted or top-dose-only effect; inactive means no such curve, though single readings can be large or run the other way; further: potency means the concentration at half of the fitted maximal effect; the source files actives as falling curves though it sought activators and does not explain the sign; nearly all actives have a fitted effect of over 65% in size
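ClpP 10 microg/mL final, pH 8 Tris/KCl buffer with BSA, glycerol, Tween-20; compound pinned in; FRET-FV substrate; RT 20 min; Ex320/Em430; ΔFRET vs ADEP 5.8 microM, DMSO, no enzyme.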
The depositor's hits bear a star; ? = inconclusive; / = not tested or not shown; [ ] = dose if it differs, or a comment. Hits are enriched below; roughly 3.7% of the tested compounds scored in any of these assays. Unless noted, the call rests on the fitted dose curve; in most records, active means well fitted curve in the direction sought with a large enough effect; inconclusive means small, poorly fitted or top-dose-only effect, or another doubt; inactive means no such curve, though single readings can be large; an effect the other way counts as inactive or inconclusive.

SMILES | Nrf2 ARE act | A549 tox | Nrf2 block | miR-21 reporter | TCR activator | ClpP mod
COc1ccc(N(C(=O)c2ccc(OC)c(OC)c2)S(=O)(=O)c2ccc(Cl)cc2)cc1 | 0.6% | -6.5% | ? | 3.4% | / | -2.6%
Cc1cccc2c(C(O)c3cn(C)c4ccccc34)c[nH]c12 (stereo unspecified) | / | / | / | / | / | 4.9%
COc1ccccc1-c1sc2ccccc2c1-c1ccc(OCCN2CCCCC2)cc1 | 10.9% | -12.1% | 2.8% | / | 0.7%[46.1 µM] | 31.6µM*
COc1ccc(/C=N/NC(=O)NC23CC4CC(CC(C4)C2)C3)c(OC)c1 | 6.4% | 3.8% | ? | 1.3% | -2.5% | /
CC(C)(C)OC(=O)N1CCC(c2nnc(SCc3ccccc3)o2)CC1 | 8.9% | -12.8% | 11.6µM* | -7.0% | / | 0.0%
Oc1c(C=Nc2ccccc2)sc2ccccc12 | 14.1µM* | -4.0% | ? | -4.6% | 2.8% | /
CN=Cc1sc2ccccc2c1O | 4.6% | -29.8% | -11.0% | -7.6% | 4.7% | -0.5%
Oc1c(C=NCc2ccncc2)sc2ccccc12 | 14.1µM* | -13.1% | 21.2% | -33.3% | -0.2% | -10.4%
Oc1ccccc1N=Cc1sc2ccccc2c1Cl | 11.2µM* | 0.2% | 8.9% | -3.2% | -0.4%[46.1 µM] | -8.6%
CCOC(=O)c1cc(S(=O)(=O)Nc2ccc(Br)c(C)c2)[nH]n1 | 0.7% | 9.4% | / | -14.6% | / | 1.8%

Three of the compounds above, tab-delimited:
smiles	Nrf2 ARE act	A549 tox	Nrf2 block	miR-21 reporter	TCR activator	ClpP mod
CN=Cc1sc2ccccc2c1O	4.6%	-29.8%	-11.0%	-7.6%	4.7%	-0.5%
Oc1c(C=NCc2ccncc2)sc2ccccc12	14.1µM*	-13.1%	21.2%	-33.3%	-0.2%	-10.4%
Oc1ccccc1N=Cc1sc2ccccc2c1Cl	11.2µM*	0.2%	8.9%	-3.2%	-0.4%[46.1 µM]	-8.6%

Continued.
SMILES | Nrf2 ARE act | A549 tox | Nrf2 block | miR-21 reporter | TCR activator | ClpP mod
CN(C(=O)c1cccc(NC(=O)Cc2ccc(NC(=O)C3CCCN(C(=O)c4ccccc4)C3)cc2)c1)C1CCCCC1 (stereo unspecified) | 4.6% | -4.9% | -24.3% | / | 7.6% | -0.9%
O=C1C(=Cc2ccc(F)cc2)CCc2ccccc21 | ? | / | / | / | / | -0.1%
Cc1ccc(-c2cc(C(=O)N3N=C(C(F)F)CC3(O)C(F)F)c3ccccc3n2)cc1C (stereo unspecified) | -1.4% | 0.0%[1.84 µM] | ? | -4.5% | / | 25.1µM*
COc1cc(OC)c(NS(=O)(=O)c2c(C(=O)N3CCCCCC3)c(C)n(C)c2C)cc1Cl | 0.0% | -3.3% | 19.5% | -0.3% | / | 0.0%
Cc1cc(C)cc(-n2c(SCC(=O)N3CCc4ccccc43)nc3c([nH]c4ccccc43)c2=O)c1 | 0.3% | -0.5% | / | 4.7% | / | -5.6%
CC(C)CC1=C/C(=C/c2ccc(-c3ccccc3)o2)C(=O)O1 | 1.7%[9.22 µM] | 0.8% | -3.7% | -34.7% | 7.6% | 25.1µM*
NS(=O)(=O)c1ccc(-c2ccc(C=C3C(=O)c4ccccc4C3=O)o2)cc1 | -1.1% | -2.3% | 4.1% | -1.2% | -7.4% | 0.0%
Nc1c(C(=O)NCc2ccccc2)sc2nc(N3CCOCC3)c3c(c12)CCCC3 | 0.6% | ? | ? | -24.2% | 2.6% | 25.1µM*
Cc1cc(C)cc(N2C(=O)N(c3ccccc3C)C3CS(=O)(=O)CC32)c1 (stereo unspecified) | 0.4% | 3.4% | 6.3% | -5.4% | -0.7% | 1.1%
Cc1cccc(N2C(=O)N(c3ccccc3C)C3CS(=O)(=O)CC32)c1 (stereo unspecified) | -0.7% | 1.5% | / | 1.9% | -3.0% | 28.2µM*
Cc1cc(C)c2cccc(NC(=S)NC(=O)c3ccccc3)c2n1 | ? | 14.9% | 5.4% | -3.8% | 8.8% | -1.2%
O=C(NC(=S)Nc1cccc(NC(=S)NC(=O)c2ccccc2)c1)c1ccccc1 | 15.0% | -9.8% | ? | / | 6.4% | /
CCOC(=O)Cc1csc(NC(=S)NC(=O)c2ccc(C)cc2)n1 | -3.1% | -10.1% | 2.06µM* | 14.6% | 5.6%[46.1 µM] | 2.3%
COc1cc(OC)nc(NC(=S)NC(=O)c2ccccc2)n1 | 11.2µM* | 25.2% | 10.9% | -4.8% | -3.9%[46.1 µM] | -2.7%
Cc1csc(NC(=S)NC(=O)c2ccccc2)n1 | 6.31µM* | -1.5% | ? | -63.5% | 6.3% | /
Cc1ccc2cccc(NC(=S)NC(=O)c3ccccc3)c2n1 | 3.98µM* | -17.6% | -10.4% | -14.9% | 5.3% | 3.0%
Cc1csc(NC(=O)c2ccccc2)n1 | 6.2% | 9.6% | ? | -31.1% | -0.6% | -0.5%
Cc1ccccc1NC(=O)Cn1c(C)nc2ccc(NC(=O)C3CC3)cc2c1=O | 0.3% | -5.7% | 6.5% | -11.1% | 6.7% | -13.2%
Cc1ccccc1NC(=O)Cn1c(C)nc2ccc(N)cc2c1=O | -0.2% | -6.5% | 10.3% | -1.1% | -1.2% | 28.2µM*
N#Cc1ccc(OCc2nnc(SCC(=O)N3CCCc4ccccc43)n2-c2ccccc2)cc1 | 2.8% | 0.4% | -11.3% | 6.8% | 1.0% | -2.7%
Cc1ccc(-n2c(SCc3ccc(C#N)cc3)nnc2-c2ccccn2)cc1 | -0.9% | -10.2% | -11.7% | -22.9% | 8.2% | -0.2%
Cc1ccc(OCc2nnc(SCc3ccc(C#N)cc3)n2-c2ccc(C)cc2)cc1 | 5.3% | ? | 18.4µM* | 3.5% | -2.4% | -0.8%
COc1ccc(OCc2nnc(SCC(=O)N3CCCc4ccccc43)n2-c2ccc(C)cc2)cc1 | 1.9% | ? | 23.1µM* | 3.8% | -0.6% | -0.7%
O=C(CCc1ccccc1)Nc1nnc(-c2ccccn2)o1 | -0.5% | 13.3% | 0.1% | -7.0% | -0.6%[46.1 µM] | 22.4µM*
CCC(=O)Nc1nnc(-c2ccccn2)o1 | -1.2% | -3.6% | 0.6% | -1.1% | -5.9%[46.1 µM] | ?
CN(Cc1ccccc1)C(=O)CCSc1nc(-c2ccc3c(c2)OCO3)cc(C(F)(F)F)n1 | -0.4% | -19.3% | ? | -1.2% | -0.6%[46.1 µM] | 17.8µM*
O=C(CCSc1nc(-c2ccc3c(c2)OCO3)cc(C(F)(F)F)n1)NCc1ccccc1 | -0.2% | -13.3% | ? | -10.9% | -2.0%[46.1 µM] | -2.9%
COc1ccc(CNC(=O)CCSc2nc(-c3ccc4c(c3)OCO4)cc(C(F)(F)F)n2)cc1 | 0.7% | -16.3% | ? | -2.3% | 4.0%[46.1 µM] | 7.94µM*
CCOC(=O)c1ccccc1N/C=C/C(=O)c1cccs1 | 6.31µM* | -3.1% | ? | -60.1% | -4.9%[46.1 µM] | 2.8%
NC(=O)c1ccccc1N/C=C/C(=O)c1ccccc1 | 0.4% | 2.9% | -7.1% | -36.9% | 1.9% | 5.0%
COC(=O)c1ccccc1N/C=C/C(=O)c1ccc(Br)cc1 | 25.2% | -12.3% | ? | -55.3% | -2.8%[46.1 µM] | 25.1µM*
CCOC(=O)c1ccccc1NC(=O)c1cccs1 | 0.1% | -10.9% | -22.8% | -8.8% | -1.4% | 12.6%
COc1cc2c(C(=O)O)c(C)n(CC(C)C)c2c2ccccc12 | -0.6% | -1.6% | -0.8% | -7.6% | 3.4% | 35.5µM*
CC(C)Cn1c2ccccc2c2cc(C(=O)O)ccc21 | 0.1% | -3.4% | / | 0.1% | 1.5% | -23.0%
CCS(=O)(=O)c1ncc(Cl)c(C(=O)N2CCN(c3ccc(OC)cc3)CC2)n1 | -6.2% | ? | 20.6µM* | ? | / | 0.9%

2 entries from above in a different format.
SMILES	Nrf2 ARE act	A549 tox	Nrf2 block	miR-21 reporter	TCR activator	ClpP mod
COC(=O)c1ccccc1N/C=C/C(=O)c1ccc(Br)cc1	25.2%	-12.3%	?	-55.3%	-2.8%[46.1 µM]	25.1µM*
Cc1cccc(N2C(=O)N(c3ccccc3C)C3CS(=O)(=O)CC32)c1 (stereo unspecified)	-0.7%	1.5%	/	1.9%	-3.0%	28.2µM*

Screening data deposited in PubChem BioAssay by National Center for Advancing Translational Sciences (NCATS).
